For this assay, the target named is human PD-L1 / Human PD-1 (Homo sapiens (Human), UniProt Q9NZQ7). The assay is described as follows: Enzyme-Linked Immunosorbent Assay (ELISA), PD-1/PD-L1 binding. To be noted: read-out: ELISA IC50; Table 3; plate-coated human PD-L1, biotinylated human PD-1.

Chains of the proteins cited; added tags and fusions are not shown. Residues count along the entry.
UniProt Q9NZQ7, 19-239 limits assumed: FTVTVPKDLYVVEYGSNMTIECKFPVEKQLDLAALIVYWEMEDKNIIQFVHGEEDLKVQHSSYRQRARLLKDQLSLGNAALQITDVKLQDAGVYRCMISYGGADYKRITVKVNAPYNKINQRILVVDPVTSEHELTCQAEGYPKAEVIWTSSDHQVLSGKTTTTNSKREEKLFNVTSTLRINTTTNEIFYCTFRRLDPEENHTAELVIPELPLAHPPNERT

Regarding `COc1cccc(-c2cccc3c2CC[C@@H]3Oc2cc(OCc3cc(C#N)cc(C#N)c3)c(CN[C@@H](CO)C(=O)O)cc2Cl)c1F`, the IC50 was less than 100 nM.

The values are drawn from patent publication US10639284B2, “Immunomodulator compounds” (CHEMOCENTRYX, INC., priority 2016, dated 2020).
